{"sequences": {"note": "Protein sequences, listed by entry. Tags and fused reporters are not part of them.", "UniProt P32300, whole entry": "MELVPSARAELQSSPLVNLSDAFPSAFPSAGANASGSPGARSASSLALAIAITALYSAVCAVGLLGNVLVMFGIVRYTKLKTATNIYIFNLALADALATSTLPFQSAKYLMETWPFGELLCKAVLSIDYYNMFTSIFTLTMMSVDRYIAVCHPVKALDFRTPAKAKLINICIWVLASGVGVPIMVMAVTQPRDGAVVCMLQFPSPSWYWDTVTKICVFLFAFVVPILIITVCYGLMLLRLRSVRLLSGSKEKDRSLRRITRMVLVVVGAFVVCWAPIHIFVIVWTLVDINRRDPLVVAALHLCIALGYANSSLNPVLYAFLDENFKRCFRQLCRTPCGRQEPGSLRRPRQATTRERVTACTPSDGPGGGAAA"}, "source": "ChEMBL document CHEMBL1132565", "about": "(J Med Chem, 1999)", "target": "Delta-type opioid receptor (Mus musculus, UniProt P32300)", "test": "Displacement of [3H]NLT from Opioid receptor delta 1 of adult male mouse brain."}
{"smiles": "CC(C)[C@H](NC(=O)[C@H](CC(=O)O)NC(=O)[C@H](Cc1ccccc1)NC(=O)[C@@H](C)NC(=O)[C@@H](N)Cc1ccc(O)cc1)C(=O)N[C@H](C(=O)NCC(N)=O)C(C)C", "note": "[DELTORPHIN C]", "values": [{"measurement": "Ki", "result": 0.8, "unit": "nM"}]}
